2 compounds from PubChem BioAssay AID1952 (The Scripps Research Institute Molecular Screening Center, 2009) can be followed below.

The chains behind the UniProt entries cited, without tags or fusion partners.
UniProt P48145, whole entry: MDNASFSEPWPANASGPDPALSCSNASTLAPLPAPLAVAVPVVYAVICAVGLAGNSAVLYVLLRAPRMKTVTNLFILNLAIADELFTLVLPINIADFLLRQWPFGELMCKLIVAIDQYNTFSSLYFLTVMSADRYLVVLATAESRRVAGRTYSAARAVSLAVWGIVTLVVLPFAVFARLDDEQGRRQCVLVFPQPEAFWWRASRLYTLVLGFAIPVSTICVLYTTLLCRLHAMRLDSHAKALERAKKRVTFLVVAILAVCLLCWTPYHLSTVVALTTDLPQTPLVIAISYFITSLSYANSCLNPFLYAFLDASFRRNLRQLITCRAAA

Only a part is listed here, and it is no random draw. Active and inactive are the calls of the source. Rule as the data show it: active = inhibition above about 24%; inactive = the rest.

This assay has as its target Neuropeptides B/W receptor type 1 (Homo sapiens) (UniProt P48145). As to the kind of experiment: GPR7 receptor antagonists, confirmation, cell-based, fluorescence, single concentration (AID 1952).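 Also: stimulated with the GPR7 agonist NPW; 0% = agonist plus vehicle and 100% = vehicle alone without agonist.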 Particulars: GPR7-expressing cells, calcium fluorescence antagonist mode; at 4.4 µM; hits give high values.
Regarding `CCCOc1ccc(NP(C)(=O)Oc2ccc(Cl)cc2)cc1` (configuration not stated), the inhibition was inactive: 0.3%. The value for `O=C(O)c1cccc(Nc2c([N+](=O)[O-])cc([N+](=O)[O-])cc2[N+](=O)[O-])c1` was inactive: -7.77%.

As usually defined, the inhibition is the drop in the measured response relative to a control, in per cent.
